Results published in PMC5973688.

Chains of the proteins cited; added tags and fusions are not shown. A line that says so, or that is headed by a name, gives the form on record, which may keep a tag or linker. Residues count along the entry.
UniProt O75015, 17-233: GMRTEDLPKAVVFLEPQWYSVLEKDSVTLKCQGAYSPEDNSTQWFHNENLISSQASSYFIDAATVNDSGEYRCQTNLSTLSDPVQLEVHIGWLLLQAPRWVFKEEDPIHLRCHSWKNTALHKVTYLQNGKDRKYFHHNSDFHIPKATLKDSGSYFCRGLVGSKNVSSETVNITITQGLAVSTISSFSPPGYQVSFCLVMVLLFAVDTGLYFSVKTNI
UniProt P02745, 23-245: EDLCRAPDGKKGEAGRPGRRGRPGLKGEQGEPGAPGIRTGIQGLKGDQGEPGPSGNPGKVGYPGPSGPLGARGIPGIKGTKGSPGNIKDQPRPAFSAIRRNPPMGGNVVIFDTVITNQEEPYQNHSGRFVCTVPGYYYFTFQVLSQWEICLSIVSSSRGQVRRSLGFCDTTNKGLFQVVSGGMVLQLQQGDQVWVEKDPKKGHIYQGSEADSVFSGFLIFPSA
C1q complement, UniProt P02746, 28-253: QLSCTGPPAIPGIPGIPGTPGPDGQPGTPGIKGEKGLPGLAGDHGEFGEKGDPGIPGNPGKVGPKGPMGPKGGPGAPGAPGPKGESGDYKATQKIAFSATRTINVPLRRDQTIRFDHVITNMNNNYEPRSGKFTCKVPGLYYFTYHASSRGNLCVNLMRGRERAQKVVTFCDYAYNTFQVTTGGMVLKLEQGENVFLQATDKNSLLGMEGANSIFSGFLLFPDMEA
C1q complement, UniProt P02747, 29-245: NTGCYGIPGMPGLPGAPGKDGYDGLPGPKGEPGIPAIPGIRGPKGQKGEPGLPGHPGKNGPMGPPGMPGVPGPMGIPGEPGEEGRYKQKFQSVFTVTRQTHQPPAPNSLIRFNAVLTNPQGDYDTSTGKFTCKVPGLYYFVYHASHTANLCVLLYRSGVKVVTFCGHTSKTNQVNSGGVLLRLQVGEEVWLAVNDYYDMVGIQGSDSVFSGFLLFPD
CT-P6 (biosimilar product of trastuzumab) (human), light, as listed by the source, chain 2 of 2: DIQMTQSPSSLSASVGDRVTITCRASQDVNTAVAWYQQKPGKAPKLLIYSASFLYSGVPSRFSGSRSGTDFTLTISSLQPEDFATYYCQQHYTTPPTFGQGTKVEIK

Tests used:
[1] = biological target: CT-P6 (biosimilar product of trastuzumab) (human); test: ELISA; antibody samples serially diluted (60,000 to 27.43 ng/mL) and coated on the plate; 10 ug/mL C1q for 2 hours in CaCl2 assay buffer; bound C1q detected with anti-C1q-HRP; result as EC50 of CT-P6 in-house reference standard / EC50 of sample x 100
[2] = biological target: EU-Herceptin® (trastuzumab reference product, EU) (human); test: as above
[3] = biological target: FcγRIIIb (human) (UniProt O75015); test: SPR; Fc gamma receptor immobilised on a BIAcore CM5 chip by amine coupling (10 mM sodium acetate pH 5.0); antibody samples serially diluted in HBS-EP pH 7.4; steady state model; result as KD of CT-P6 in-house reference standard / KD of sample x 100

relative C1q binding affinity (% of CT-P6 in-house reference standard, from EC50), mean of lots [1] [%]	relative C1q binding affinity (% of CT-P6 in-house reference standard, from EC50), mean of lots [2] [%]	relative binding affinity (% of CT-P6 in-house reference standard), mean of lots [3] [%]	Substance
104	100		C1q complement (from UniProt P02745 23-245; P02746 28-253; P02747 29-245) (complex)
		97	CT-P6 (biosimilar product of trastuzumab) (antibody)
		89	EU-Herceptin® (trastuzumab reference product, EU) (antibody)
		83	US-Herceptin® (trastuzumab reference product, US) (antibody)
